Assay results as given in patent publication US7291478B1.

By UniProt entry, the sequences of proteins in these tests, tags left out. Where a name states a change or a piece, a line headed by the entry shows the natural chain unless it says otherwise.
UniProt Q45087: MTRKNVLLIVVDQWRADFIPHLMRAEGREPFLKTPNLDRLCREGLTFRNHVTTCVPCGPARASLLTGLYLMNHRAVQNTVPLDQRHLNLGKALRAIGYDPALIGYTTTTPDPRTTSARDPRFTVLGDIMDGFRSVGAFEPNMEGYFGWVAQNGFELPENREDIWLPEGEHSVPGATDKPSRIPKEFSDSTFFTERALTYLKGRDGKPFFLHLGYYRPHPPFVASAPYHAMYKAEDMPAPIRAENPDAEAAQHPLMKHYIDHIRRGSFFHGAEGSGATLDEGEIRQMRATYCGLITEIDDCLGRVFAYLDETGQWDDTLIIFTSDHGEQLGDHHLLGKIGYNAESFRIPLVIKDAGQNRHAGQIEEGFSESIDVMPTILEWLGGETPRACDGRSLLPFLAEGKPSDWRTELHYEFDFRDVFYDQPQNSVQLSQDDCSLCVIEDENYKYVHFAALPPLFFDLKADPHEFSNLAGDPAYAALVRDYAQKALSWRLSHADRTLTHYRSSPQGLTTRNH

Target: phosphonate ester hydrolase (PEH) (Trinickia caryophylli, UniProt Q45087)
Details: parent compound alkali hydrolyzed (1.0 N NaOH), neutralized, then 10 mM with PEH extract, pH 9.0, about 30° C.; GC-FPD

SMILES | Degradation by PEH of the alkali-treated (alkaline hydrolyzed) product of the named compound
CCOC(=O)CC(SP(=S)(OC)OC)C(=O)OCC (stereo not drawn) | not
CNC(=O)/C=C(\C)OP(=O)(OC)OC | not
CCOP(=S)(OCC)Oc1cc(C)nc(C(C)C)n1 | not
